This note sets out measurements from patent US7932269B2, “Sulfonamides as orexin antagonists” (Hoffmann-La Roche Inc., priority 2008, dated 2011).

By UniProt entry, the sequences of proteins in these tests, tags left out.
UniProt O43614, whole entry: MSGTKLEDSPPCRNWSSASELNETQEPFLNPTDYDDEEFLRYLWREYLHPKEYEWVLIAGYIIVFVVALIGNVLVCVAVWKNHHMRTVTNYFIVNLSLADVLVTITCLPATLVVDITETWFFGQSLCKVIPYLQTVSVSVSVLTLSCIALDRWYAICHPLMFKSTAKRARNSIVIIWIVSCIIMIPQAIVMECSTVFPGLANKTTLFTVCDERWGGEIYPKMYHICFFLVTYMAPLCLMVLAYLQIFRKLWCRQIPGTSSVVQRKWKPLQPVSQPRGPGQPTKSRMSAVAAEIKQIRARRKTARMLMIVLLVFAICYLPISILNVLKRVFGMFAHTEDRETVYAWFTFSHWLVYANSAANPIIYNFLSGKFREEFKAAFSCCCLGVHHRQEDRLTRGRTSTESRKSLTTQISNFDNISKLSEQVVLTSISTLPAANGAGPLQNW

The assay deals with human orexin-2 (hOX2) receptors (Homo sapiens, UniProt O43614). The assay is described as follows: Intracellular Ca2+ mobilization assay (FLIPR), orexin-A as agonist. As to conditions: read-out: Kb (μM) OX2R (human); CHO(dHFr-) cells stably expressing hOX2; antagonist applied 25 min before EC80 of orexin-A; Kb=IC50/(1+[A]/EC50). The method, then:
Intracellular Ca^2+ Mobilization Assay
The Chinese Hamster Ovary (dHFr-) mutant cell line stably expressing human orexin-1 (hOX1) or human orexin-2 (hOX2) receptors were maintained in Dulbecco's Modified Eagle Medium (1X) with GlutaMax™ 1, 4500 mg/L D-Glucose and Sodium Pyruvate (Catalog No. 31966-021, Invitrogen, Carlsbad, Calif.), 5% dialyzed fetal calf serum (Catalog No. 26400-044), 100 μg/ml penicillin and 100 μg/ml streptomycin. The cells were seeded at 5×10^4 cells/well in the poly-D-lysine treated, 96-well, black/clear-bottomed plates (Catalog No. BD356640, BD Biosciences, Palo Alto, Calif.). […] The cells were washed five times with FLIPR buffer to remove excess dye and intracellular calcium mobilization, [Ca^2+] were measured using a Fluorometric Imaging Plate Reader (FLIPR-96, Molecular Devices, Menlo Park, Calif.) as described previously (Malherbe et al., Mol. Pharmacol., 64, 823-832, 2003). […] The EC50 and EC80 values of orexin-A were measured daily from standard agonist concentration-response curves in CHO(dHFr-)-OX1R and —OX2R cell lines. […] Inhibition curves were determined by addition of 11 concentrations (0.0001-10 μM) of inhibitory compounds and using EC80 value of orexin-A as agonist (a concentration which gave 80% of max agonist response, determined daily). […]
A general note: A change in cytosolic calcium serves as a functional read-out for many receptors and channels.

Take `O=C(CN(c1ccc(Cl)cc1)S(=O)(=O)c1cccc(F)c1)N1CCCC1c1ccccc1` (centres unmarked): the antagonist equilibrium constant (Kb) was 0.003 µM. As for `O=C(CN(c1ccc(Cl)cc1)S(=O)(=O)c1ccc(F)cc1)N1CCCC1c1ccccc1` (centres unmarked), the antagonist dissociation constant (Kb) came out at 0.0014 µM.

A word on the Kb: it is the affinity of an antagonist, worked out from how it opposes an agonist.
